Laboratory results: patent US5906819

Target: intact myosin (chicken)

Question: With F-actin (from UniProt P68135) as the substance, how does the apparent Ka value for actin in the actin-activated MgATPase assay read?
Answer: Its apparent Ka value for actin in the actin-activated MgATPase assay is 0.56 µM.
